Apparent affinities of Ab-14 variants for a coronavirus HR2 peptide

Source: Li et al. 2023 (doi:10.1038/s41467-023-39022-2), MIT Lincoln Laboratory and A-Alpha Bio; data file from the FLAb repository.

Antigen: PDVDLGDISGINAS, a 14-residue peptide of the SARS-CoV-2 spike HR2 region.

Parent: Ab-14, a human scFv built as VH, a (GGGGS)3 linker, VL. Only the CDRs of the heavy chain vary.
VH: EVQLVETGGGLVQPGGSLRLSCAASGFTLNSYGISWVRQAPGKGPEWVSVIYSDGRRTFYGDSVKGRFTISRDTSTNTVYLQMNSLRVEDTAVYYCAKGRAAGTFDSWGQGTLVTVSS
VL: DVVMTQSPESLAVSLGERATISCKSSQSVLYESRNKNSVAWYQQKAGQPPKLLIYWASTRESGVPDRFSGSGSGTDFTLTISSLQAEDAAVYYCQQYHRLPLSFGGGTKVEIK

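The starting antibody came from a phage panning campaign against this peptide. Designed CDR sequences, proposed from the first random library and measured here. Several design methods are mixed in this list. The assay is AlphaSeq: two haploid yeast populations carry antibody and antigen on their surface. The frequency of each diploid, read from paired DNA barcodes, reflects how well the two displayed proteins bind. Scores were corrected for input abundance and mapped to Kd with protein pairs of known affinity run in the same pool. Each pool was mated in six replicate cultures.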

Variants are written as CDR1, CDR2 and CDR3 of the heavy chain (limits as in the source). Parent: GFTLNSYGIS, VIYSDGRRTFYGDSVK, GRAAGTFDS. Kd is apparent (estimated from mating counts) and averaged on the log scale over replicates with a signal. Smaller is tighter. A pair that was not seen in any replicate is written "no signal"; this usually means weak binding, but a binder can also be missed.

| Kd | detected | empty controls | CDR-H1 | CDR-H2 | CDR-H3 |
|---|---|---|---|---|---|
| 950 pM | 6/6 | 0/18 | GFDLDEYGIS | VIYADGKRTAYADSVK | GQVAGTFDI |
| 47 nM | 2/6 | 0/18 | GFTLNDYGIS | VIYSDGYRTFYGGSVK | GAAAGTFDS |
| 600 pM | 6/6 | 0/18 | GFNLDEYGIS | VIYADGRRTFYADSVK | GEIAGTFDV |
| 160 pM | 6/6 | 0/18 | GFSLDEYGIS | VIYADGRRTFYTDSVK | GGNAGTFDV |
| 400 pM | 6/6 | 0/18 | GFDLNEYGIS | VIYADGRRTFYADSVK | GNAAGTFVN |
| no signal | 0/6 | 0/18 | GFTLNEYGIS | VIYSNGRRTFYGDSVK | GRAAVTFDQ |
| 8.2 nM | 6/6 | 0/18 | GFTLMSYGIS | VIYSDGRRTFYGDSVK | GREAGTFDS |
| 4.2 nM | 1/6 | 0/18 | GFTLNEYGIS | VIYSDGLRTFYTDSVK | GRAQGTFDS |
| no signal | 0/6 | 0/18 | GFSLNSYGIS | VIYSDGRRTFYGDSVK | GRAAATFDS |
| no signal | 0/6 | 0/18 | GFNLDEYGIS | VIYADGMRQSYAQNVK | GVHVCWFGL |
| no signal | 0/6 | 0/18 | GFTLNSYGIS | VIYSDGRRTFYGDSVK | GRQAGTPDS |
| 260 pM | 6/6 | 0/18 | GFDLNEYGIS | VIYADGKRTAYSDSVK | GSNAGTFDM |
| 2.8 nM | 4/6 | 0/18 | GFTLNSYGIS | VIYSDGKRTFYSDSVK | GEAAGTFDT |
| 5.8 µM | 1/6 | 0/18 | GFWLNSYGIS | VIYSDGRRTFYGDSVK | GNAAGTFDS |
| no signal | 0/6 | 0/18 | GDSLNEYGIS | VIYADGLRSYYVNSVK | GEVDGLFSQ |
| 2.2 nM | 6/6 | 0/18 | GFLLNEYGIS | VIYSDGRRTFYGDQVK | GRTAGTFDS |
| 2.3 nM | 6/6 | 0/18 | GMSLDEYGIS | VIYADGVRCAYANTVK | GELAGFFVL |
| 360 pM | 6/6 | 1/18 | GFGLNEYGIS | VIYSDGRRTFYSDAVK | GRTAGTFDS |
| 11 nM | 6/6 | 0/18 | GFDLEDYGIS | VIYADGRRTFYADSVK | GNVAGTFIL |
| 370 pM | 6/6 | 1/18 | GFELNSYGIS | VIYSDGRRTFYSDSVK | GKVAGTFDS |
| 800 pM | 6/6 | 0/18 | GFDLNSYGIS | VIYSDGRRTFYLDSVK | GREAGTFDS |
| 260 pM | 6/6 | 0/18 | GFDLNEYGIS | VIYADGMRTFYADSVK | GNTAGTFLS |
| no signal | 0/6 | 0/18 | GFTLNSYGSS | VIYSDGRRTSYNDSYK | GRRAGTFDS |
| 5.2 nM | 4/6 | 0/18 | GFPLNEYGIS | VIYSDGRRTFYGDSVK | GRAAVTFDQ |
| 19 nM | 6/6 | 0/18 | GFELNSYGIS | VIYSDGKRTFYIDSVK | GRQAGTFDS |
| 39 nM | 12/12 | 0/36 | GFTINSYGIS | VIYSDGRRTFYADSVK | GRAAGTFDS |
| no signal | 0/6 | 0/18 | GFQLNEYGIS | VIYSDGRRTFYGDSVK | GRAAVTFDS |
| no signal | 0/6 | 0/18 | GFDLNEYGIS | VIYSDGRRTFYADSVK | GRDAGTFDS |
| 10 nM | 5/6 | 1/18 | GFTLNSYGIS | VIYSDGRRTFYGDSVK | GQTAGTFDA |
| 420 pM | 6/6 | 1/18 | GFDLNEYGIS | VIYADGHRTFYSDSVK | GQVAGTFDA |
| 1.5 nM | 6/6 | 0/18 | GFDLNEYGIS | VIYADGSRKAYADSVK | GQNAGTFDV |
| 750 pM | 6/6 | 2/18 | GFDLDEYGIS | VIYADGQRTAYADSVK | GETAGTFDT |
| 150 nM | 5/6 | 0/18 | GFWLNEYGIS | VIYSDGRRTFYGDSVK | GQAAGTFDL |
| 700 pM | 6/6 | 0/18 | GFDLDEYGIS | VIYADGRRTAYTDSVK | GETAGTFDV |
| 670 pM | 6/6 | 0/18 | GFNLDEYGIS | VIYADGRRTFYSDSVK | GEAAGTFDV |
| 250 pM | 5/6 | 0/18 | GFDLEEYGIS | VIYADGRRTAYADSVK | GEAAGTFDL |
| 500 pM | 6/6 | 1/18 | GFDLNSYGIS | VIYADGRRTFYGDSVK | GRAAGTFDV |
| 110 nM | 2/6 | 1/18 | GFTLNSYGIS | VIYSDGRRTFYGDRVK | GRAAGTFDS |
| no signal | 0/6 | 0/18 | GFTLNTYGIS | VIYSDGRRTAYDDSVK | GRAAGDFDS |
| 210 pM | 6/6 | 0/18 | GFDLNEYGIS | VIYADGRRTFYSDSVK | GEVAGTFDV |
| 25 nM | 6/6 | 2/18 | GFWLNEYGIS | VIYSDGRRTFYQDSVK | GRQAGTFDS |
| no signal | 0/6 | 0/18 | GFSLNSYGIS | VIYSDGRRTFYQDSVK | GSLAGTFIL |
| no signal | 0/6 | 0/18 | GFTLNSYGIS | VIYSDGRRTFYNDSVK | NRAAGTFDS |
| no signal | 0/6 | 0/18 | GFTLNSYGIS | VIYSDGERTFYHDSVK | GRAQGPFDY |
| 86 nM | 4/6 | 2/18 | HFTLSSYGIS | VIYSDGRRTAYLDSVK | GRVAGTFDS |
| no signal | 0/6 | 0/18 | GVDLNSYGIS | VIYSLGRRTFDGDSVK | GRLAGWFNS |
| 5.3 nM | 5/6 | 0/18 | GFTLNSYGIS | VIYSDGRRTFYTDSVK | GMIAGTFDS |

Picked from the list: the 5 lowest averages where every replicate gave a value.

CDR-H1,CDR-H2,CDR-H3,Kd,detected,empty controls
GFSLDEYGIS,VIYADGRRTFYTDSVK,GGNAGTFDV,160 pM,6/6,0/18
GFDLNEYGIS,VIYADGRRTFYSDSVK,GEVAGTFDV,210 pM,6/6,0/18
GFDLNEYGIS,VIYADGKRTAYSDSVK,GSNAGTFDM,260 pM,6/6,0/18
GFDLNEYGIS,VIYADGMRTFYADSVK,GNTAGTFLS,260 pM,6/6,0/18
GFGLNEYGIS,VIYSDGRRTFYSDAVK,GRTAGTFDS,360 pM,6/6,1/18

In the paper, a design with two or fewer of six values counts as a poor binder. Where one sequence has several entries in the source, the replicates are pooled. The range of this assay differs from that of the first round, and the authors advise against merging the two. Three control strains display no target. For all heavy chain designs, 1% of the pairings with them gave a signal, with a median of 120 nM and one signal in twenty below 7.0 nM, so weak values seen in few replicates may be background. For each scFv, signals with the empty controls are counted beside the result. The parent sequence was in this pool as ten entries: three were never detected, three once, and four in most replicates, with averages from 2.2 nM to 240 nM.